Data published in patent US20100184601A1, “Method and Means Relating to Multiple Herbicide Resistance in Plants” (University of Durham, priority 2007, published 2010).

Tests used:
MHR black-grass plants = test: Phytotoxicity screen: compound pre-treatment of MHR black-grass followed by chlortoluron, scored for phytotoxic injury; assay type: in vivo, black-grass (Alopecurus myosuroides); details: compound at 80 g a.i. ha^−1 on 14 day old MHR black-grass; chlortoluron 500 g a.i.ha^−1 48 h later; scored after 10 days
AmGSTF1 = test: Effect of inhibitors on activity of recombinant black-grass AmGSTF1-1; assay type: biochemical, black-grass (Alopecurus myosuroides); details: 0.1 mM inhibitor; recombinant enzyme
AmGSTL1 = test: Effect of inhibitors on activity of recombinant black-grass AmGSTL (thiol transferase); assay type: biochemical, black-grass (Alopecurus myosuroides); details: 0.1 mM inhibitor; recombinant enzyme
MHR black-grass = test: Spray trial: effect of inhibitor pre-treatment on MHR (herbicide resistance) in black-grass; assay type: in vivo, black-grass (Alopecurus myosuroides)
MHR Peldon plants = test: Flavonoid content of MHR Peldon plants after inhibitor treatment; details: compared with WT

With `Nc1c([N+](=O)[O-])cc([N+](=O)[O-])c2nsnc12` the “Score (phytotoxic injury)” value (MHR black-grass plants) was “+”.

With `Cc1ccc([N+](=O)[O-])c2no[n+]([O-])c12` the “Score (phytotoxic injury)” value (MHR black-grass plants) was “+”.

In the case of `O=[N+]([O-])c1ccc(Cl)c2nonc12`, the “inhibition of AmGSTF1 activity” value (AmGSTF1) was “totally inhibited”, the “inhibition of AmGSTL1 activity” value (AmGSTL1) was “totally inhibited” and the “effect on resistance to chlortoluron” value (MHR black-grass; applied 48 h prior to chlortoluron) was “reduced resistance”. For the same molecule, the “effect on resistance to fenoxaprop ethyl” value (MHR black-grass; applied 48 h prior to fenoxaprop ethyl) was “reduced resistance” and the “flavonoid content in MHR Peldon plants” value (MHR Peldon plants) was “reduced the flavonoid content in MHR Peldon plants to WT levels”.
